Source: PMC11676817 (2024)

Assay: in vitro
Settings: human

## COc1ccc(C[C@H]2NC[C@H](O)[C@H]2OC(C)=O)cc1 [(-)-Anisomycin]
  CC50 at 7 days: 250 ± 130 nM
  selectivity ratio at 7 days: 13
